Results on one molecule are retold here after patent publication US12540143B2, “Methods and compositions for targeted protein degradation” (Ranok Therapeutics (Hangzhou) Co. Ltd., priority 2019, dated 2026).

The test relates to SU-DHL-4 diffuse large B-cell lymphoma xenograft. Description: SU-DHL-4 DLBCL xenograft model in mice. The settings on record: 100 mg/kg oral 1×/day. As to the method:
10 μL the cell proliferation reagent CCK-8 (WST-8) was added into each well and incubated at 37° C./5% CO2 for 3-4 hr and the absorbance at 450 nm measured with an En Vision Plate Reader.
5×10^6 MV-4-11 or 1×10^7 SU-DHL-4 cells were collected and re-suspended in 0.1 mL of serum-free media with Matrigel (1:1 v/v) per mouse for subcutaneous inoculation in isoflurane anesthetized male BALB/c nude or C.B-17 scid mice, respectively (treated in accordance with AAALAC animal welfare guidelines). When the average tumor volumes reached 100-200 mm^3, tumor volume outliers were removed and the remaining animals randomly divided into groups of 6-8 with similar average tumor volumes in each group. […] Animals were intravenously dosed at 25 mg/kg, 50 mg/kg or 100 mg/kg 1×/week for 3 or 4 weeks. The appearance and behavior of each mouse was observed and recorded daily. Body weights and tumor volumes were measured and recorded every 2-4 days and the results were expressed as group means±SEM. Pairwise statistical comparisons between groups were performed by one-way ANOVA, and p<0.05 was considered statistically significant.

On to `Cc1sc2c(c1C)C(c1ccc(Cl)cc1)=N[C@@H](CC(=O)Nc1ccc(O)cc1)c1nnc(C)n1-2` [OTX-015, reference compound], for which the T/C value stood at 45%.
